Tested on: HLA transgenic mice
Assay: T cell response to Hcit peptides in HLA transgenic mice (screening, ex vivo ELISpot)
Parameters: species or system mouse
Conditions: yes/no; Hcit peptide with CpG/MPLA
Description: C57BL/6 mice (Charles River, UK), HLA-DR4 mice (Model #4149, Taconic, USA), HLA-A2/DR1 (HHDII/DR1, Pasteur Institute), HLA-A2.1+/+HLA-DP4+/+hCD4+/+ (HLA-HHDII/DP4) transgenic mice (EM: 02221, European Mouse Mutant Archive) described in patent WO2013/017545 A1 (EMMA repository, France) were used, aged between 8 and 12 weeks. Peptides were dissolved in PBS to 1 mg/ml and then emulsified (a series of dilutions) with CpG ODN 1826 and MPLA 6 μg/mouse of each (Invivogen, UK). Peptides (25 μg/mouse) were injected subcutaneously at the base of the tail. Mice were immunised at days 1, 7 and 14 for peptide immunisation. Spleens were removed for analysis at day 21 unless stated otherwise.
ELISpot assays were performed using murine IFNγ, IL-17 and IL-10 capture and detection reagents according to the manufacturer's instructions (Mabtech, Sweden). […] After incubation, captured IFNγ, IL-10 and IL-17 were detected by biotinylated anti-IFNγ, IL-10 and IL-17 antibodies and developed with a streptavidin alkaline phosphatase and chromogenic substrate. […] Spots were analysed and counted using an automated plate reader (Cellular Technologies Ltd).
Screening was performed to identify potential homocitrullinated vimentin epitopes in mice. […] On day 21 the mice were culled and the immune responses to each peptide within the immunising pool were assessed by ex vivo ELISpot. […]

LARLDLER-Hcit-VESLQEEIAFL-Hcit [Vimentin 215-235 Hcit]
T cell response: no

From patent US12458688B2, “Epitopes” (Scancell Limited, priority 2018, dated 2025)
